Source: PubChem BioAssay AID1285 (Columbia University Molecular Screening Center, 2008)
The entries are a selection whose mix differs from that of the whole data set. Activity calls are given as the source filed them.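 The calls were made as follows: active = inhibition above a set limit, derived from the sample mean plus 3 SD (cut at about 45% in these data); inconclusive = one replicate passes the limit while the other fails; inactive = the rest.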

Experiment: APP 5'UTR translational reporter suppression – APP 5'UTR luciferase, SH-SY5Y cells, primary screen (AID 1285)
Details: SH-SY5Y APP 5'UTR-luciferase reporter, luminescence; at 2 µM; active compounds read high

Structure (SMILES)	inhibition
CN(C)c1ccc(C(=O)NCC2(N3CCCCC3)CCCCC2)cc1	inactive: 7.5%
CCN1CCC(Nc2cccc(F)c2)CC1	inactive: 14.3%
CC(C)(C)OC(=O)N1CCC(Nc2ccccc2)CC1	inactive: -9.5%
CCOc1ncccc1C(=O)NCC1(N2CCOCC2)CCCCC1	inactive: 5.3%
CCC(CO)(C(=O)OC1CN2CCC1CC2)c1ccccc1 (stereo not given)	inactive: -3.6%
COc1cc(OC)cc(C(=O)NCC2(N3CCOCC3)CCCCC2)c1	inactive: 12.5%
COc1ccc(C(=O)NCC2(N3CCOCC3)CCCCC2)cc1OC	inactive: 10.3%
O=C(OC1CN2CCC1CC2)C1c2ccccc2C=Cc2ccccc21 (stereo not given)	inactive: 2.4%
N/C(=N\O)c1c(N)no[n+]1[O-]	inactive: 5.2%
N#Cc1ccc(C(=O)NCC2(N3CCCCC3)CCCCC2)cc1	inactive: 13.9%
c1ccc(CN2CCC(Nc3ccccc3)CC2)cc1	inactive: -4.4%
O=C(NCC1(N2CCCCC2)CCCCC1)c1cccc([N+](=O)[O-])c1	inactive: -4.1%
N#CC1(Nc2ccccc2)CCN(CCc2ccccc2)CC1	inactive: -0.1%
COc1ccc(NC2CCN(C(=O)OC(C)(C)C)CC2)cc1	inactive: -8.1%
CN1CCN(CCOC(=O)C(O)(c2ccccc2)c2ccccc2)CC1	inactive: 20.3%
O=C(NCC1(N2CCOCC2)CCCCC1)c1cc(=O)[nH]c2ccccc12	inactive: -13.2%
CN(C)c1cccc(C(=O)NCC2(N3CCCCC3)CCCCC2)c1	inactive: 10.6%
COc1ccc(CN(CCCl)CCCl)cc1Cl	inactive: -25.7%
CC(C)c1ccc(NC2CCN(C(=O)OC(C)(C)C)CC2)cc1	inactive: -58.2%
CN1CCC(Nc2cccc(F)c2)CC1	inactive: -2.6%
COc1ccc(C(=O)NCC2(N3CCCCC3)CCCCC2)c(OC)c1OC	inactive: 5.3%
CCOC(=O)N1CCC(Nc2ccc(OC)cc2)CC1	inactive: -3%
O=C(OC1CN2CCC1CC2)C1c2ccccc2Oc2ccccc21 (stereo not given)	inactive: 3.2%
O=C(NCC1(N2CCOCC2)CCCCC1)c1cc2ccccc2o1	inactive: 2.5%
COc1ccc(NC2CCN(CCc3ccccc3)CC2)c(OC)c1	inactive: 11.1%
